Paper PMC10279719 (Nature Communications, 2023)

Biological target: T1, PEAK2^IDR1 (residues 802-1406), from insect cells, phosphorylated by Src (human, UniProt Q86YV5 802-1406, phosphorylated with Src kinase, sites not stated; phosphorylation of the tandem site 14-3-3 motif (RAASSP) found by proteomic analysis; biotin (EZ-Link NHS-PEG4-Biotin, 1:1 molar ratio))
T1 construct: human PEAK2 (SgK223, PRAG1), UniProt Q86YV5, residues 802-1406; also called PEAK2-IDR1 (+ Src phosphorylation); source: Sf21 insect cells, purified; phosphorylated in vitro with recombinant Src kinase domain
T1 sequence (looked up): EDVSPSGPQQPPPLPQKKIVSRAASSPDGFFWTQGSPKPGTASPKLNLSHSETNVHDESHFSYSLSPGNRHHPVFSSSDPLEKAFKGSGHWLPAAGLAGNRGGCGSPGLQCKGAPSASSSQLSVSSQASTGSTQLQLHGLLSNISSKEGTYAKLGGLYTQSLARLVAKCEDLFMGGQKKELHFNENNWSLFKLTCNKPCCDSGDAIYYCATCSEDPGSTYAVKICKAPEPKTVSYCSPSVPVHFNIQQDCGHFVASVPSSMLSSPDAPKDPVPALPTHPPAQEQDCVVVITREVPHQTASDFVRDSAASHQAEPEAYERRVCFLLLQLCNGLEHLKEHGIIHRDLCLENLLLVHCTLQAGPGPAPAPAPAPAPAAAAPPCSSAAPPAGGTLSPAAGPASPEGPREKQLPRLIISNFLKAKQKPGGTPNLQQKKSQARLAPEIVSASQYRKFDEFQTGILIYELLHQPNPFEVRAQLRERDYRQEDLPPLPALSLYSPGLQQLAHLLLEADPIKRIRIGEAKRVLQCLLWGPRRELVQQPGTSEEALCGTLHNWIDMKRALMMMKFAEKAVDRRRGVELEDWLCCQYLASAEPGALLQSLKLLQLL
Experiment: SPR; biotinylated PEAK proteins (with or without Src phosphorylation) captured with a biotin CAPture kit; Grb2 FL, Grb2 SH2, CrkII SH2, CrkII FL monomer or dimer as analytes; Biacore 8K+, 20 °C, HBS-TP with NaCl raised to 500 mM; 1 M NaCl regeneration; steady state
Settings: both partners purified

Kd: > 50 µM
B1: Grb2 SH2 domain (Grb2^SH2) (domain or fragment, human, UniProt P62993-1 60-152, looked up)
chain: WFFGKIPRAKAEEMLSKQRHDGAFLIRESESAPGDFSLSVKFGNDVQHFKVLRDGAGKYFLWVVKFNSLNELVDYHRSTSVSRNQQIFLRDIE
modifications: biotin (EZ-Link NHS-PEG4-Biotin, 1:1 molar ratio) where it was immobilised (a1)
notes: SH2 domain of human Grb2; This construct is not in the list of the methods; the other adapter constructs were made in E. coli C41 (DE3) with an N-terminal His8 tag
